Measured values from patent publication US20070264623A1, “Nanosensors” (PRESIDENT AND FELLOWS OF HARVARD COLLEGE, priority 2004, published 2007).

Molecular target: T1, Abl tyrosine kinase (Abelson murine leukemia virus, UniProt P00521)
T1 sequence (P00521 128-379 limits assumed): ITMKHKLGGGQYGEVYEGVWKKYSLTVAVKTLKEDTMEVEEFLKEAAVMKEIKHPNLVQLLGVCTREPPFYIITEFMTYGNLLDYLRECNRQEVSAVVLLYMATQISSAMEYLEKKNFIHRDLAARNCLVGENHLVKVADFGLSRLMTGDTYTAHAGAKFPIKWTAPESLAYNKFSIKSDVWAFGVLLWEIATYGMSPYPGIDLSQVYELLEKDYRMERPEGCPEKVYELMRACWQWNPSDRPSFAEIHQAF

O=C(O)CCCC[C@@H]1SC[C@@H]2NC(=O)N[C@@H]21 [biotin]
decrease in normalized conductance (degree of inhibition of ATP binding) (100 nM ATP and 50 nM small molecule): essentially no change above background
concentration dependence of normalized delta-G (inhibition) (varying small molecule concentration, fixed 100 nM ATP): almost no concentration dependence
